Earlier results as cited in PMC3729039 (Molecular cancer therapeutics, 2013).

Tested on: AR LBD
Conditions: patients with CRPC post docetaxel treatment; cited from earlier work

## CNC(=O)c1ccc(N2C(=S)N(c3ccc(C#N)c(C(F)(F)F)c3)C(=O)C2(C)C)cc1F [enzalutamide]
  median overall survival advantage compared to placebo: 4.8 months
